These results are taken from article PMC3366963, “Nucleolin Inhibits G4 Oligonucleotide Unwinding by Werner Helicase” (PLoS ONE, 2012).

Protein sequences, listed by entry. Tags and fused reporters are not part of them.
UniProt Q14191, whole entry: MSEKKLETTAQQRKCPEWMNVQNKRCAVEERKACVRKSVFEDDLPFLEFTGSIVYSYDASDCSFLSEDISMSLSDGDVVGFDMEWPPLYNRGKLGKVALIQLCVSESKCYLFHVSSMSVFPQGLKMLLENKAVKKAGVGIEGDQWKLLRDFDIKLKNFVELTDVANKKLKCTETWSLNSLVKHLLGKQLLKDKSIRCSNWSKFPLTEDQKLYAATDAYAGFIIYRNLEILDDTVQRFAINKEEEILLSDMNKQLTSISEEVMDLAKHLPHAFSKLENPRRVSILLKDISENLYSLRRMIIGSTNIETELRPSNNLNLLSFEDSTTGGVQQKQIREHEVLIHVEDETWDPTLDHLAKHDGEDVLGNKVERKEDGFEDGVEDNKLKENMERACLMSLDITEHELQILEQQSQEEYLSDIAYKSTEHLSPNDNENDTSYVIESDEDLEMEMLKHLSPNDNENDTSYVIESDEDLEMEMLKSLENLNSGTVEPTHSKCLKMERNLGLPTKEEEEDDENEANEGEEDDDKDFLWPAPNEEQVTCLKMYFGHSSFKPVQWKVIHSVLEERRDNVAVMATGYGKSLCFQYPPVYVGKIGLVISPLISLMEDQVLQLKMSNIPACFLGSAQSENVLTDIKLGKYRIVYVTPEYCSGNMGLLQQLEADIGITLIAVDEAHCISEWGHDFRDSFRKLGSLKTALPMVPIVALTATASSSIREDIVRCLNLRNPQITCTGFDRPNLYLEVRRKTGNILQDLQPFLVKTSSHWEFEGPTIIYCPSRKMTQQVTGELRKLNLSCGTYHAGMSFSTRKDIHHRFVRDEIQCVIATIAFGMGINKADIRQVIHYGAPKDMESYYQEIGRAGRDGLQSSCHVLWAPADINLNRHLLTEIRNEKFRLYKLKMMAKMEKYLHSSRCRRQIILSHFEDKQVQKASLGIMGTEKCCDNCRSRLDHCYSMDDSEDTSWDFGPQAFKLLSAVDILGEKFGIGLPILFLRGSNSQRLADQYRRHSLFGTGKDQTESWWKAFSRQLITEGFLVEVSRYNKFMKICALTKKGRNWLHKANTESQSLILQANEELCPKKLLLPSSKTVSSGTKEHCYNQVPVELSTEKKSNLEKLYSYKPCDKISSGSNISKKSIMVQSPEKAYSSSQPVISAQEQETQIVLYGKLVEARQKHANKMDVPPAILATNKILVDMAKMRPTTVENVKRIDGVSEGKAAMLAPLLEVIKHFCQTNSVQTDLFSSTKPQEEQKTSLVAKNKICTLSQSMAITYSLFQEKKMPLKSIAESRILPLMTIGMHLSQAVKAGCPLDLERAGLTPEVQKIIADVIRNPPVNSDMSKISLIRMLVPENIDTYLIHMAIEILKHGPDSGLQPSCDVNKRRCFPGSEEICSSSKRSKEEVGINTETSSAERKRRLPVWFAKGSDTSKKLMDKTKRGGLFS

The experiment addresses His6-WRN, full length purified (human, UniProt Q14191). Put plainly: cell-based or functional assay.

B1: GST-ΔN-NCL (domain or fragment, human, UniProt P19338 284-707, looked up)
chain: MAKQKAAPEAKKQKVEGTEPTTAFNLFVGNLNFNKSAPELKTGISDVFAKNDLAVVDVRIGMTRKFGYVDFESAEDLEKALELTGLKVFGNEIKLEKPKGKDSKKERDARTLLAKNLPYKVTQDELKEVFEDAAEIRLVSKDGKSKGIAYIEFKTEADAEKTFEEKQGTEIDGRSISLYYTGEKGQNQDYRGGKNSTWSGESKTLVLSNLSYSATEETLQEVFEKATFIKVPQNQNGKSKGYAFIEFASFEDAKEALNSCNKREIEGRAIRLELQGPRGSPNARSQPSKTLFVKGLSEDTTEETLKESFDGSVRARIVTDRETGSSKGFGFVDFNSEEDAKAAKEAMEDGEIDGNKVTLDWAKPKGEGGFGGRGGGRGGFGGRGGGRGGRGGFGGRGRGGFGGRGGFRGGRGGGGDHKPQGKKT
As for B1, the “inhibition of WRN helicase unwinding of a 22 base pair partial duplex fork substrate, ΔN-NCL at a molar ratio of 25:1 vs WRN” value was approximately 50%.
